Yeast mating assay 1: variants of the scFv Ab-14

Target peptide (SARS-CoV-2 spike, HR2 region): PDVDLGDISGINAS

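The starting antibody came from a phage panning campaign against this peptide. Library AAYL49 holds single substitutions and randomly drawn double and triple substitutions in the CDRs. Affinity was read by AlphaSeq, a pooled yeast mating assay with surface-displayed partners. Mating (16 h, 30 °C) was followed by selection of diploids and sequencing of their barcodes. Scores were corrected for input abundance and mapped to Kd with protein pairs of known affinity run in the same pool. The assay was run in three technical replicates.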

Parent: Ab-14, a human scFv built as VH, a (GGGGS)3 linker, VL. Only the CDRs of the heavy chain vary.
VH: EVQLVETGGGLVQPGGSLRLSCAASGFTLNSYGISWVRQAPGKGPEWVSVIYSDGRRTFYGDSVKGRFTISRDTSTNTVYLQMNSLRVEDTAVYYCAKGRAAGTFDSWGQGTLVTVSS
VL: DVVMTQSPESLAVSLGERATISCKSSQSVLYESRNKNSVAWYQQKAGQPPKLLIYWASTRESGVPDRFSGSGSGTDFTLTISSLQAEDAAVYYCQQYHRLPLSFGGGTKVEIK

The parent's heavy chain CDRs are GFTLNSYGIS, VIYSDGRRTFYGDSVK, GRAAGTFDS; each variant's own CDRs replace them letter for letter.
Affinities are written as log10 Kd with Kd in nM; a lower number is a better binder.
Where no diploid with the target was found in that replicate, the entry reads "nd": below detection, most likely a poor binder, though not proof of it.
Empty control strains, which show no peptide, gave a signal in 15% of pairings with library AAYL49; the median was 4.06 and 95% of these signals were weaker than 2.83. No background was subtracted.
Parent in this assay: reference entry 0.65, copy in this library 4.11 (one replicate of three).

CDR-H1	CDR-H2	CDR-H3	log10 Kd, replicates
GFSLSSYGIS	VIYSDGRRTFYGDSVK	GWAAGTFDS	1.15 / 1.10 / 1.11
GFTLNSYGIS	VIYSDGRRTFYGYSVW	GRAADTFDS	nd / nd / nd
GSTLNSYGIS	VIYSDGRRQFYGDSVK	GRAAGTFDS	3.78 / 3.17 / 3.30
GFTMNSYGIS	VIYSDGRRTFDGDSVD	GRAAGTFDS	nd / 3.66 / 4.93
GATLNSYGIS	VIYSDSRRTFNGDSVK	GRAAGTFDS	nd / nd / nd
GFTLNSCGIT	VNYSDGRRTFYGDSVK	GRAAGTFDS	nd / nd / nd
GFTLNSYGVS	VIYSDGKRTFYGDSVK	GRAHGTFDS	4.66 / 3.85 / nd
GFTLNSYGIS	VIYSMGQRTFYGDSVK	GRAIGTFDS	5.96 / 3.18 / 4.54
GFTLNWYGDS	VIYSDGRRTFYGDSVK	VRAAGTFDS	nd / 3.45 / nd
GFTLNSYGIC	VIYSDGRRTFKGDSVK	GRATGTFDS	4.61 / nd / nd
GFTLNSYGIS	VIYSDGRRTFYGDSVK	FRIAGTFDS	nd / nd / nd
GFTLNSMGIS	VIYSDGRRTFYGDSVA	GRAAGTFCS	nd / nd / nd
GFTLNSVGIS	VIYSDGRRTFYIDSVK	GRAAGTFDS	5.26 / 4.51 / 4.33
GFTLNSYGIC	VIYSDGRRTFYGDSHK	GRAAGFFDS	nd / nd / 2.78
GFTLNSYGIS	VLYSDGRRTFYGFSVK	GRAAYTFDS	nd / nd / nd
GFTLNSYGIS	VIYADGERTFYGDSVK	GRAAGTFHS	3.02 / 2.20 / 1.89
GFTLNSHGIS	VIYSDKRRHFYGDSVK	GRAAGTFDS	nd / 3.65 / nd
EFTLNSYGIS	VIYSDGRRTFYGDSVK	DRAEGTFDS	nd / nd / nd
GFTFNSYGIS	VIYSDGRRTFYGDSVK	GRWAGTFES	2.08 / 2.04 / 2.22
GFTLNSYGIS	VIYSDGRRTFYGDTVK	GRAAITFDS	nd / nd / 2.80
GPTLNSYGIS	VIYSDGRRTDYSDSVK	GRAAGTFDS	nd / 3.99 / 3.36
GFTLNSYGIS	VHYSDGRRTFYGDSVI	GRAAGPFDS	nd / nd / nd
QFTLNSIGIS	VIYSDGRRTEYGDSVK	GRAAGTFDS	nd / nd / nd
GFTENSYGIS	VIYSDGRRDFYGDSVK	GRAAGTFDC	nd / nd / nd
GFTLDSYGDS	VDYSDGRRTFYGDSVK	GRAAGTFDS	nd / nd / nd
GATLNSYGIS	VIYSDGRRTFYGDSVK	GHASGTFDS	3.39 / 3.44 / 3.33

Further variants, results first:

log10 Kd, replicates	CDR-H1	CDR-H2	CDR-H3
nd / nd / nd	GFTLNSYGIS	FIYSDGRRTFYGDSVK	GRPAGTFVS
nd / nd / nd	GFTWNSYRIS	VIYSDGRRTFYGDSVK	GDAAGTFDS
nd / nd / nd	GFTLNSYGIS	VICSDGRRTFYGDSVE	GKAAGTFDS
0.76 / 0.97 / 0.82	GFILNSYGIS	VIYSDGRRTFYADSVK	GRAAGTFDS
5.47 / nd / 4.20	GFTLNSYGIS	VIYSDNRRTFRGDSFK	GRAAGTFDS
nd / nd / nd	GLTLNSYGIS	DIYSDGRRTFYGDSVK	GRIAGTFDS
nd / nd / 3.51	GLTLNSYGIK	VIYSDGRRTGYGDSVK	GRAAGTFDS
3.65 / nd / nd	GFTLNSYGIS	VTYSDGRLTFRGDSVK	GRAAGTFDS
5.70 / 3.66 / 3.09	GFTLNSYGNS	VIYSDVRRTFYGDSVK	GRAAGVFDS
nd / 3.49 / nd	GFTLNSYIIS	VIYSDGRRDFYGDSVK	GRACGTFDS
nd / nd / 3.60	GFTLNSYGIS	VIYSDGRRTFYRDSVK	GRAAGYFDE
2.91 / 2.62 / nd	GETLNSYGIS	VIYSDGRRTFYGDSVK	GMAAGTFDA
nd / 4.12 / nd	GYTLNSYGIL	VIYSDGRRTFYGDSVK	LRAAGTFDS
nd / nd / nd	GFTLNSYGCS	AIYSDGRRTFYGDSVK	GRAAGTVDS
nd / nd / nd	GFTLNSYGIS	VIQSDGRRTFYGDSVK	VIAAGTFDS
nd / nd / nd	GFTLNSYGIS	VIYSDGRRTNYGDSEK	GRAAMTFDS
3.80 / nd / nd	MFTLNSYGIS	PIYSDGRRTFYGDYVK	GRAAGTFDS
nd / nd / nd	GFTLNSYGIF	VIYSVGRRTFYGVSVK	GRAAGTFDS
nd / nd / nd	GFTLNSYGIS	VIYSDGRRTEYGDSRK	GRAAGTFQS
3.03 / 2.63 / 2.59	GFQLNSYGIS	VIYSDGRRTFYGDSVK	YWAAGTFDS
nd / nd / nd	GFTLNSYGIS	VIYSDGRRTFYGDSVK	VRAAITIDS
3.31 / 2.94 / 3.27	GFTLNSYGIS	VIYSDGRRDFYGDSVK	GRAAGTFIS
2.48 / 2.71 / 2.78	GFTLNSYGIS	VAYSDGRRTFYGDSVM	GEAAGTFDS
nd / nd / 6.05	GFTLNSYGIS	VIYSDQRRTFYGDSVK	GRTAGWFDS
nd / nd / nd	GFTSNSYGIS	SIYCDGRRTFYGDSVK	GRAAGTFDS
nd / nd / nd	GFTLNSYGIS	VIYSDQCRTFYGDSVK	GRAAGTLDS

The last 4 entries again:

CDR-H1	CDR-H2	CDR-H3	log10 Kd, replicates
GFTLNSYGIS	VAYSDGRRTFYGDSVM	GEAAGTFDS	2.48 / 2.71 / 2.78
GFTLNSYGIS	VIYSDQRRTFYGDSVK	GRTAGWFDS	nd / nd / 6.05
GFTSNSYGIS	SIYCDGRRTFYGDSVK	GRAAGTFDS	nd / nd / nd
GFTLNSYGIS	VIYSDQCRTFYGDSVK	GRAAGTLDS	nd / nd / nd

Source: Engelhart et al. 2022 (doi:10.1038/s41597-022-01779-4), MIT Lincoln Laboratory and A-Alpha Bio; data file from the FLAb repository.